By IC50 is commonly meant the concentration at which inhibition is half-maximal.

Sequences of proteins named here, by UniProt entry; tags and fusion partners are left off.
UniProt P00750, whole entry: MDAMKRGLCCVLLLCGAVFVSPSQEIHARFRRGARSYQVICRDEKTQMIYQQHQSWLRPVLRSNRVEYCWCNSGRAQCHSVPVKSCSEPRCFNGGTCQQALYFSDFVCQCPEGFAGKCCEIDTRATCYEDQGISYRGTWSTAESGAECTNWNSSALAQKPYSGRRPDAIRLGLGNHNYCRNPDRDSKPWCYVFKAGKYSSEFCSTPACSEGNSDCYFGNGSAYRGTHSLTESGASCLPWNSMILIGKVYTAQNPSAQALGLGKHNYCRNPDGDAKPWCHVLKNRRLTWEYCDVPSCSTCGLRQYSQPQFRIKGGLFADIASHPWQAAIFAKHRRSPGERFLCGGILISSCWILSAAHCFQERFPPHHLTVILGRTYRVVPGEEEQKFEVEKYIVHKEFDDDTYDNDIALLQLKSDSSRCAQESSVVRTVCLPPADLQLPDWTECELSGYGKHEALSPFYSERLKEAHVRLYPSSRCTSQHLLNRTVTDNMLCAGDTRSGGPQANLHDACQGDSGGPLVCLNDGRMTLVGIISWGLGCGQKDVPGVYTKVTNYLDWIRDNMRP

Data on 4 compounds can be found in BindingDB's records for patent US10118930 (Bayer Pharma Aktiengesellschaft, 2018).

For the test, the target named is Tissue-type plasminogen activator (Homo sapiens, UniProt P00750). As to the kind of experiment: The clot-lysis test system configures the kinetics of clot formation and degradation in vitro and allows quantifying modulation of the process by selected test compounds.The test compounds were dissolved in 1% acetic acid and further complemented with an equal volume of DMSO. The resulting stock solutions were serially diluted in 0.5% acetic acid/50% DMSO. 1 μL aliquots of these solutions were placed into 384 well microplates (Greiner, black, transparent bottom), followed by 30 μL of diluted human citrated plasma (platelet-poor, final concentration: 5%; supplemented with fibrinogen, final concentration: 3 μM; dilution buffer: 20 mM HEPES, 150 mM NaCl, 0.01% Brij (pH 7)). The reactions were started by addition of 20 μL of CaCl2 (final concentration: 10 mM), and tPA (tissue plasminogen activator, final concentration: 0.2 nM) in dilution buffer, followed by an additional volume of 20 μL dilution buffer for improved mixing. The reactions were incubated at 37° C. […] IC50 values were determined by comparing the resulting time courses with the time course of a blank control reaction.
For `CCCn1ccnc1CNC(=O)c1cnn2c(C3CCNCC3)cc(=O)[nH]c12` [US10118930, Example 84], the IC50 was 34 nM.

`O=c1cc(C2CCNCC2)n2ncc(-c3nc(-c4ccc(C(F)(F)F)cc4F)no3)c2[nH]1` [US10118930, Example 135]: the IC50 worked out at 40 nM. Under `O=c1cc(C2CCNCC2)n2ncc(-c3noc(Cc4ccc(OC(F)(F)F)cc4)n3)c2[nH]1` [US10118930, Example 239] stands 30 nM. The same measure for `O=c1cc(C2CCNCC2)n2ncc(-c3nc(-c4ccccc4C(F)(F)F)no3)c2[nH]1` [US10118930, Example 260]: 31 nM.
